Experimental data: PubChem BioAssay AID602410 (Johns Hopkins Ion Channel Center, 2012)
This is a selection; strong and weak results do not stand in their true shares. Some structures show a salt or complex split into parts, the way the source records it. Calls of active or inactive are those of the source.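 How the source made its calls: active means B-score under library mean minus 4 SD, starting fluorescence ratio at most library mean plus 5 SD; inactive means the rest.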

Sequences of proteins named here, by UniProt entry; tags and fusion partners are left off.
UniProt O14649, whole entry: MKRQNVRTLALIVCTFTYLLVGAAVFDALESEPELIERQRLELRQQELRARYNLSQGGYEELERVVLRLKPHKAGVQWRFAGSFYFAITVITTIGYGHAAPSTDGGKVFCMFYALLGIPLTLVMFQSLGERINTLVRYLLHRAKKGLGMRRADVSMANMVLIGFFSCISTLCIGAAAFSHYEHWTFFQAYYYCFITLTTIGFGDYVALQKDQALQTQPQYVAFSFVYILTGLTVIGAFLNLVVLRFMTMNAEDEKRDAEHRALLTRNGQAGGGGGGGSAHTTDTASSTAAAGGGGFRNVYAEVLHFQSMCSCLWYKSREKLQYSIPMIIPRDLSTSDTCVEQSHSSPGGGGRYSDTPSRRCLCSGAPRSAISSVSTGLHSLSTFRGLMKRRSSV

biological target: Potassium channel subfamily K member 3 (Homo sapiens) (UniProt O14649); assay: blockers of TASK1 two-pore potassium channel – CHO cells, FluxOR thallium flux, B-score, primary screen (AID 602410); conditions: CHO-KCNK3 thallium flux, FluxOR fluorescence; at 10 µM

| Compound | outcome |
| --- | --- |
| CCCCCOc1ccc(NP(C)(=O)Oc2ccc(Cl)cc2Cl)cc1 (stereo unspecified) | inactive |
| Cc1ccccc1OP(=O)(Nc1ccccn1)Oc1ccccc1C | inactive |
| CC(NC(=O)COC(=O)C(O)(c1ccccc1)c1ccccc1)c1ccccc1 (stereo unspecified) | inactive |
| CP(=O)(Nc1ccccc1)Oc1ccc(F)cc1 (stereo unspecified) | inactive |
| CCC(=O)N1C2C3N(C(=O)CC)C1C1N(C(=O)CC)C(C(N1C(=O)CC)N3C(=O)CC)N2C(=O)CC | inactive |
| CCN(CC)CCCOC(=O)C(O)(c1ccccc1)C1CCCCC1 (stereo unspecified) | inactive |
| O=C(OC1CN2CCC1CC2)c1ccccc1 (stereo unspecified) | inactive |
| Cc1ccc(OP(=O)(Nc2ccccn2)Oc2ccc(C)cc2)cc1 | inactive |
| CC(=O)NC(SC(=S)N(CC(C)C)CC(C)C)C(Cl)(Cl)Cl (stereo unspecified) | inactive |
| COC(=O)c1cc2c(s1)N=C(c1ccccc1)N(C)P2(=O)N1CCOCC1 (stereo unspecified) | inactive |
| Cc1c([N+](=O)[O-])cc([N+](=O)[O-])c(Br)c1[N+](=O)[O-] | inactive |
| COc1ccc(OP(C)(=O)Nc2ccc(SC(F)(F)F)cc2)cc1 (stereo unspecified) | inactive |
| CCOC(=O)c1ccc(NP(C)(=O)Oc2ccc(F)cc2)cc1 (stereo unspecified) | inactive |
| O=P1(N(CCCl)CCCl)OCCC2CCCCN21 (stereo unspecified) | inactive |
| Cc1ccc(NP(=O)(Oc2cccc(C)c2)Oc2cccc(C)c2)nc1 | inactive |
| c1ccc(-c2nn[nH]n2)c(-c2nn[nH]n2)c1 | inactive |
| O=C(NC1CCS(=O)(=O)C1)NP(=S)(Oc1ccccc1)Oc1ccccc1 (stereo unspecified) | inactive |
| CCNC(=S)/N=C(\N)N[N+](=O)[O-] | inactive |
| CC(=O)Nc1ccc(Oc2c([N+](=O)[O-])cc([N+](=O)[O-])cc2[N+](=O)[O-])cc1 | inactive |
| COc1ccc2c(c1O)-c1c(O)c(OC)cc3c1[C@H](C2)[N+](C)(C)CC3.O=[N+]([O-])c1cc([N+](=O)[O-])c([O-])c([N+](=O)[O-])c1[O-] | inactive |
| CC(=O)Nc1ccc([As](=O)(O)O)c(O)c1 | inactive |
| C[C@@H]1C=CCP(=O)(Oc2ccccc2)O1 (stereo partly specified) | inactive |
| C[C@H]1OP(=O)(Oc2ccccc2)C[C@@H]2O[C@@H]21 (stereo partly specified) | inactive |
| O=C(OCCN1CCN(CCOCc2ccccc2)CC1)C(O)(c1ccccc1)c1ccccc1 | inactive |

| Compound | outcome |
| --- | --- |
| Cc1ccccc1CN(C)C(=O)COC(=O)C(O)(c1ccccc1)c1ccccc1 | inactive |
| COC(=O)C1(C)COP(=O)(NCc2ccccc2)OC1 (stereo unspecified) | inactive |
| O=C(OC1CN2CCC1CC2)c1ccc([N+](=O)[O-])cc1 (stereo unspecified) | inactive |
| N#C/C(=C\c1ccc(N(CCBr)CCBr)cc1)C(N)=O | inactive |
| CC(=O)c1ccc(N2CC2c2ccncc2)cc1 (stereo unspecified) | inactive |
| CC(C)c1ccc(OP(C)(=O)Nc2ccc(SC(F)(F)F)cc2)cc1 (stereo unspecified) | inactive |
| CC(C)(C)C(=O)NC(Sc1ccccc1)C(Cl)(Cl)Cl (stereo unspecified) | inactive |
| CP(=O)(Nc1ccccc1F)Oc1ccccc1 (stereo unspecified) | inactive |
| CCc1cc(O)c([N+](=O)[O-])c(C)c1[N+](=O)[O-] | inactive |
| CCOc1ccc(C2=NCC(CBr)S2)cc1 (stereo unspecified) | inactive |
| O=P1(Nc2nc3ccc(Cl)cc3s2)COc2ccccc2O1 (stereo unspecified) | inactive |
| CCc1ccc(OP(C)(=O)O)cc1 | inactive |
| COc1ccccc1OP(C)(=O)Nc1ccc(C)cc1C (stereo unspecified) | inactive |
| CP(=O)(Nc1ccccn1)Oc1ccccc1 (stereo unspecified) | inactive |
| O=C(NC(Sc1ccncn1)C(Cl)(Cl)Cl)c1ccccc1 (stereo unspecified) | inactive |
| Oc1ccccc1CNc1ccccn1 | inactive |
| O=[N+]([O-])c1cc([N+](=O)[O-])c(Nc2ccccn2)c([N+](=O)[O-])c1 | inactive |
| CC(C)CC(=O)NC(Sc1ccc(Cl)cc1)C(Cl)(Cl)Cl (stereo unspecified) | inactive |
| Nc1cc(N)c2nonc2c1[N+](=O)[O-] | inactive |
| Cc1c(NP(C)(=O)Oc2ccc(C(C)C)cc2)c(=O)n(-c2ccccc2)n1C (stereo unspecified) | inactive |
| CN(C)CCOC(=O)C(O)(c1ccccc1)C1CCCC1 (stereo unspecified) | inactive |
| Clc1ccc(Cl)c(NC2=NCC(CBr)S2)c1 (stereo unspecified) | inactive |
| CN1CCCC(OC(=O)C(c2ccccc2)c2ccccc2)C1 (stereo unspecified) | inactive |
| Cc1ccc(OP(=O)(Nc2nccs2)Oc2ccc(C)cc2)cc1 | inactive |

| Compound | outcome |
| --- | --- |
| COc1ccc(OP(C)(=O)Nc2ccccn2)cc1 (stereo unspecified) | inactive |
| COc1ccccc1OP(=O)(Nc1ccc(C)cn1)Oc1ccccc1OC | inactive |
| Cc1ccc(N/C(=N/P(=O)(N2CCOCC2)N2CCOCC2)N2CCOCC2)cc1 | inactive |
| COc1ccccc1OP(C)(=O)Nc1ccc(Br)cc1 (stereo unspecified) | inactive |
| CN(C(=O)Cc1ccc(Cl)c(Cl)c1)[C@H]1CCCC[C@H]1N1CCCC1 | inactive |
| NC(=O)c1cc([N+](=O)[O-])cc([N+](=O)[O-])c1N | inactive |
| CP(=O)(OCCOc1ccccc1)OCCOc1ccccc1 | inactive |
| CP(=O)(Nc1ccc(Cl)cc1Cl)Oc1ccccc1 (stereo unspecified) | inactive |
| CCCCCCCCCCCCCCCC1C[N+](C)(C)CCOP(C)(=O)O1 (stereo unspecified) | inactive |
| Nc1cccc2ccc([As](=O)(O)O)cc12 | inactive |
| CCN(N=Nc1nonc1N)c1nonc1N | inactive |
| COc1ccc(OP(C)(=O)Nc2ccccc2Br)cc1 (stereo unspecified) | inactive |
| CN(C(=O)Cc1ccc(Cl)c(Cl)c1)[C@H]1CCCC[C@@H]1N1CCCC1 | inactive |
| Cc1ccc(NP(=O)(Oc2ccccc2F)Oc2ccccc2F)nc1 | inactive |
| COc1ccccc1OP(C)(=O)Nc1ccc(C)c(C)c1 (stereo unspecified) | inactive |
| CCOP(=O)(Nc1ccccc1)OCC | inactive |
| Cc1cc(SC(NC(=O)c2ccc(F)cc2)C(Cl)(Cl)Cl)ncn1 (stereo unspecified) | inactive |
| Cc1cc(C)cc(OP(C)(=O)Nc2cccc(C(F)(F)F)c2)c1 (stereo unspecified) | inactive |
| O=P(Nc1nc2ccc(Cl)cc2s1)(c1ccccc1)c1ccccc1 | inactive |
| O=C1C(O)=C([N+](=O)[O-])C(=O)C(O)=C1[N+](=O)[O-] | inactive |
| CCCC1OP(N)(=O)OCC1CC (stereo unspecified) | inactive |
| O=C(O)c1ccccc1[As](=O)(O)O | inactive |
| CC(=O)Nc1ccc([As](=O)(O)O)cc1 | inactive |
| O=C(O)CNc1ccc([As](=O)(O)O)cc1 | inactive |

| Compound | outcome |
| --- | --- |
| O=[N+]([O-])c1cccc(NC2=NCC(CBr)S2)c1 (stereo unspecified) | inactive |
| COC(=O)C1(C)COP(=O)(Nc2ccccc2)OC1 (stereo unspecified) | inactive |
| O=[N+]([O-])c1ncn(CCn2ncnc2[N+](=O)[O-])n1 | inactive |
| CC(C)(C)C(=O)NC(Sc1ccncn1)C(Cl)(Cl)Cl (stereo unspecified) | inactive |
| CP(=O)(OC12CC3CC(CC(C3)C1)C2)OC12CC3CC(CC(C3)C1)C2 | inactive |
| O=C(Nc1cc([As](=O)(O)O)ccc1O)c1ccccc1 | inactive |
| CCOC(=O)c1ccc(NP(C)(=O)Oc2ccc(Cl)cc2)cc1 (stereo unspecified) | inactive |
| O=P1(N(CCCl)CCCl)OCCCS1 (stereo unspecified) | inactive |
| Nc1ccc2c(ccc3cccnc32)n1.O=[N+]([O-])c1cc([N+](=O)[O-])c(O)c([N+](=O)[O-])c1 | inactive |
| CC1CCN(C(=O)Oc2c(Cl)cc(Cl)c3cccnc23)CC1 | inactive |
| CN(C)C(=O)OCCc1n(C)cc[n+]1C | inactive |
| CC(C)=N/N=C(\N)N[N+](=O)[O-] | inactive |
| CN(C)C(=O)c1c([N+](=O)[O-])cc([N+](=O)[O-])cc1[N+](=O)[O-] | inactive |
| CP(=O)(Nc1ccc(Cl)cc1)Oc1ccc(F)cc1 (stereo unspecified) | inactive |
| CCN(/C(=N/P(=O)(N1CCOCC1)N1CCOCC1)N1CCOCC1)c1ccc(OC)cc1 | inactive |
| C[N+]1=C2C=CC=CC=C2SC12C([N+](=O)[O-])=CC([N+](=O)[O-])=C[C-]2[N+](=O)[O-] (stereo unspecified) | inactive |
| Nc1ccc([As](=O)(O)c2ccc(N)cc2)cc1 | inactive |
| CC(C)(C)c1ccc(OP(C)(=O)O)cc1 | inactive |
| COc1ccccc1OP(C)(=O)Nc1ccccc1Br (stereo unspecified) | inactive |
| O=[N+]([O-])c1cc([N+](=O)[O-])c(CCNc2ccccc2)c([N+](=O)[O-])c1 | inactive |
| CCc1nc2c(n1)c1c(non1O)c1c2no[n+]1[O-] | inactive |
| CCc1ccc(OP(C)(=O)Nc2cccnc2)cc1 (stereo unspecified) | inactive |
| Cc1ccc(NP(=O)(Oc2ccccc2)Oc2ccccc2)nc1 | inactive |
| CP(=O)(Oc1ccccc1)N1CCOC1=O (stereo unspecified) | inactive |

| Compound | outcome |
| --- | --- |
| O=C(OCCCN1CCCC1)C(O)(c1ccccc1)C1CCCCC1 (stereo unspecified) | inactive |
| COc1ccccc1OP(C)(=O)Nc1c(C)n(C)n(-c2ccccc2)c1=O (stereo unspecified) | inactive |
| CC(=O)N1C2C3N(C(C)=O)C1C1N(C(C)=O)C(C(N1C(C)=O)N3C(C)=O)N2C(C)=O | inactive |
| O=[N+]([O-])c1cccc2n[nH]nc12 | inactive |
| COc1ccc(C2=NCC(CBr)S2)cc1 (stereo unspecified) | inactive |
| COc1ccc(OP(C)(=O)Nc2ccc(Br)cc2)cc1 (stereo unspecified) | inactive |
| CCN(CC)CC(O)COC(=O)C(O)(c1ccccc1)C1CCCCC1 (stereo unspecified) | inactive |
| CCC(C)N(CC(C)C)C(=S)SC(NC(C)=O)C(Cl)(Cl)Cl (stereo unspecified) | inactive |
| CP(=O)(Nc1ccccn1)Oc1ccc(Cl)cc1 (stereo unspecified) | inactive |
| CCOP(C)(=S)SCC(=O)NC(C)C(=O)O (stereo unspecified) | inactive |
| O=C(OC1CN2CCC1CC2)c1cccc([N+](=O)[O-])c1 (stereo unspecified) | inactive |
| O=[N+]([O-])c1cc([N+](=O)[O-])c(O)c([N+](=O)[O-])c1.c1ccc(Oc2ccncc2)cc1 | inactive |
| CCOC(=O)c1ccc(NC(=O)C(C)(CCl)SC)cc1 (stereo unspecified) | inactive |
| CCOC(=O)c1ccc(NP(C)(=O)Oc2ccc(OC)cc2)cc1 (stereo unspecified) | inactive |
| Cc1cc(C)cc(OP(C)(=O)Nc2ccc(SC(F)(F)F)cc2)c1 (stereo unspecified) | inactive |
| O=C(Nc1ccncc1[N+](=O)[O-])c1ccc([N+](=O)[O-])cc1[N+](=O)[O-] | inactive |
| CCc1ccc(OP(C)(=O)N2CCN(c3ccc([N+](=O)[O-])cc3)CC2)cc1 (stereo unspecified) | inactive |
| CP(=O)(NC(=O)Nc1ccccc1)Oc1ccccc1 (stereo unspecified) | inactive |
| O=C(COc1ccccc1)OC1CN2CCC1CC2 (stereo unspecified) | inactive |
| CP(=O)(Oc1ccccc1)OC(c1ccccc1)C(F)(F)F (stereo unspecified) | inactive |
